Data on one substance can be found in patent US11918657B2, “Dendrimer delivery system and methods of use thereof” (The Johns Hopkins University, priority 2017, dated 2024).

This data set has as its system activated microglia. The data set is described as follows: Qualitative brain distribution by confocal imaging in rabbit model of cerebral palsy. It counts as in vivo, New Zealand white rabbits. The note with it: CP kits PND1, 55 mg/kg i.v., 24 h post-injection.

Regarding Dextran, the “crossing of blood-brain-barrier (presence in periventricular region)” value is recorded as “did not cross the blood-brain-barrier”.
